# Apparent affinities of Ab-91 variants for a coronavirus HR2 peptide

The measurements come from Engelhart et al. 2022 (doi:10.1038/s41597-022-01779-4) through the FLAb antibody collection.

All variants were tested on one target, the spike HR2 peptide PDVDLGDISGINAS (SARS-CoV-2).

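The starting antibody came from a phage panning campaign against this peptide. The library (AAYL51) carries one to three amino acid substitutions per variant, with no insertions or deletions. The scFvs were displayed on barcoded MATa yeast, the peptide on MATalpha yeast. Pairs that bind mate more often; barcode pairs of the diploids are counted by sequencing. Scores were corrected for input abundance and mapped to Kd with protein pairs of known affinity run in the same pool. Each pool was mated in three replicate cultures.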

Ab-91 is the parent antibody, in scFv form: VL, then a 15-residue (Gly4Ser)3 linker, then VH. The light chain is unchanged in all variants.
VL: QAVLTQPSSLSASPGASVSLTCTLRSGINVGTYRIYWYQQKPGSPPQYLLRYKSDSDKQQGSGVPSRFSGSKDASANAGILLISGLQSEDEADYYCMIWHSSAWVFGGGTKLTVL
VH: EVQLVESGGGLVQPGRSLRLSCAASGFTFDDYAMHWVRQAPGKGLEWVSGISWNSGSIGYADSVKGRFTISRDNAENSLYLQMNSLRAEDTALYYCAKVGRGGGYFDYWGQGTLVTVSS

Variants are written as CDR1, CDR2 and CDR3 of the heavy chain (limits as in the source). Parent: GFTFDDYAMH, GISWNSGSIGYADSVK, VGRGGGYFDY. The read-out is the apparent dissociation constant on a log10 scale (nM): the lower, the stronger. Replicates are averaged; those with no signal do not enter the mean. "nd" means that the variant was in the library but no mating with the target was seen in any replicate; the authors take this as a sign of poor binding, and no number exists. As a blank, each scFv also met three strains without target: over library AAYL51, 21% of these pairings were detected, typically at 4.54 and seldom below 3.26. For each scFv, signals with the empty controls are counted beside the result. For reference, the parent read 1.86 as the reference entry and 0.88 as a member of this library.

CDR-H1 | CDR-H2 | CDR-H3 | mean, log10 nM | replicates with signal | signal with controls
GTTFDDYWMH | GISWNSGSIGYADSVK | VGRHGGYFDY | nd | 0/3 | 0/9
GLTFDDYAMH | GISWNFGSIHYADSVK | VGRGGGYFDY | 3.09 | 1/3 | 2/9
RFTFDDYAMH | GISWNSGSIGYADSFK | YGRGGGYFDY | nd | 0/3 | 0/9
GFTFDDYAMH | GILWNSGSEGYADSVK | VGRGGGYFDY | 4.59 | 2/3 | 4/9
GFTFKDYAMH | GISWNSGSIGYKDSPK | VGRGGGYFDY | 5.62 | 3/3 | 5/9
GFTFTDYADH | GISWNSGSITYADSVK | VGRGGGYFDY | nd | 0/3 | 0/9
GCTQDDYAMH | GISWNSGSIGYADSHK | VGRGGGYFDY | nd | 0/3 | 0/9
GFTFDDYAMH | GISWNSGSIGYADSVA | VGRKGGYSDY | nd | 0/3 | 0/9
GFEFDDYAMH | GITWNSGSIGYADSVK | VGRGGGYFDF | 3.24 | 1/3 | 0/9
GFTFDDYAMH | GHSWNSTQIGYADSVK | VGRGGGYFDY | nd | 0/3 | 0/9
GFTFDDYAMH | GISWNSGFIGYADSVK | VGRGGGYFDF | 3.67 | 2/3 | 4/9
GFTFDDYAMH | GTFWNSGSIGYADSVK | VGRTGGYFDY | nd | 0/3 | 1/9
GFTFDDYAMH | GIYWNSGSIGYAISVK | VGRGGGYFDY | nd | 0/3 | 0/9
GFTFDDYAMH | GISWNSLSIGYADSVK | LGRGGGYFTY | 3.74 | 1/3 | 0/9
GFTFDDYAMH | GISWWSGSDGYHDSVK | VGRGGGYFDY | 3.45 | 1/3 | 1/9
GFTFDDYAMH | QISWNSGSIGYADSVK | VNRGGGYFDR | 4.36 | 2/3 | 0/9
GFTFDDYLMH | GISWNSGSIGYADSVK | VGRGGGYQDA | 4.24 | 1/3 | 4/9
GFKFDDYAMH | GISWNSGSIGYADSVK | VGRGGGYFNY | 2.99 | 3/3 | 2/9
GFTKDDYAMH | GISWNSGSIGYADSVK | HGLGGGYFDY | 4.08 | 1/3 | 4/9
GFTFDDYAMH | MISWNSGSIGYCDVVK | VGRGGGYFDY | 4.25 | 2/3 | 2/9
GFTFDDYAMH | GISWKSGSIGYADGVK | VGRGGGMFDY | nd | 0/3 | 2/9
GFTFDDYAMH | GISWNSGSIGYAISVK | VGRGKGCFDY | nd | 0/3 | 1/9
GFCFDDYAMH | GISWNSGSIGYAYSVK | VGRGGGYEDY | 3.81 | 1/3 | 0/9
GFTFDDYAQH | GISWNSGSIGYADSIK | VGRGGGAFDY | 3.83 | 1/3 | 1/9
GFTFDDYAMH | AISWNSFSIGYADSVC | VGRGGGYFDY | 4.03 | 1/3 | 3/9
GFFFDDYAMH | GISWNSGSIGIADSVK | VGRGGGYFRY | nd | 0/3 | 2/9
GFTFDDYAMH | GISWMSGSIGYADDVK | DGRGGGYFDY | 4.85 | 2/3 | 5/9
GFTFSDYAMH | GISWNCGSSGYADSVK | VGRGGGYFDY | 0.77 | 3/3 | 4/9
GFTFDDYAFH | FISWNSGSIGYADSVK | CGRGGGYFDY | nd | 0/3 | 1/9
GFTFDDYAIH | GISWPSGSIGYAWSVK | VGRGGGYFDY | 3.66 | 2/3 | 4/9
GFDFDDDAMH | GISWNSGSIGYADSVK | VGRGWGYFDY | 3.68 | 1/3 | 2/9
GYTFDDYAMH | GISWNSGSIGYADSVK | VPRGGGYKDY | nd | 0/3 | 0/9
GFTFDPYAMH | GISWQSGSIGYAGSVK | VGRGGGYFDY | nd | 0/3 | 1/9
GPTFDDYAMH | GISWNSGFIGYADSRK | VGRGGGYFDY | 3.14 | 1/3 | 1/9
GFTVDDYAMH | GISWNSGSNGYFDSVK | VGRGGGYFDY | 5.93 | 2/3 | 2/9
GFTFDDYAMH | MISWNSGSITYADSVK | VGAGGGYFDY | 5.58 | 3/3 | 7/9
GFTFDKYANH | GISWNSGSIKYADSVK | VGRGGGYFDY | nd | 0/3 | 1/9
GFTFDDYAMH | GIHWNSGSIGYADSVK | VGRGWGYFDY | nd | 0/3 | 2/9
GFTFVDYAMH | GIAWNTGSIGYADSVK | VGRGGGYFDY | 2.93 | 3/3 | 0/9
GFTFDDYAMH | GISWNSGSIGYAVSVK | VGCWGGYFDY | 1.69 | 3/3 | 0/9
GFTFIDVAMH | GISWNSGSIGYADSVL | VGRGGGYFDY | 3.24 | 3/3 | 1/9
GFTFDDYAMH | KISWNSGSIGYADSVK | VVRGGGSFDY | nd | 0/3 | 0/9
GFTFDDYAMH | GISWNSNSIHYADSVK | VGRGGGYFNY | nd | 0/3 | 0/9
GFTFDDYHMH | GHQWNSGSIGYADSVK | VGRGGGYFDY | nd | 0/3 | 0/9
GYTFDDYAMH | GISANPGSIGYADSVK | VGRGGGYFDY | 3.52 | 2/3 | 1/9
GFTFDDYAHH | GISWNSGSIGYADSVK | VGRGGAYFDY | nd | 0/3 | 2/9
GFTFDDYALH | GISANSGSIGYADSVK | VVRGGGYFDY | 3.50 | 1/3 | 0/9
GFTFDDYSMH | GISWNSGMIGYADSVK | VGRGGGYFDY | 3.09 | 3/3 | 0/9
GFDFDDYAMH | GISWNSGSIGYAFSNK | VGRGGGYFDY | 5.02 | 3/3 | 8/9
GFQFDDYAMH | DISWNSGSTGYADSVK | VGRGGGYFDY | 5.00 | 1/3 | 1/9
LFTFDDYAMH | GISWNSGTIGYADSVK | VGRGGGYFAY | 3.25 | 1/3 | 2/9
GFTFDRQAMH | GISWYSGSIGYADSVK | VGRGGGYFDY | nd | 0/3 | 1/9
GFTFDDYAMW | GFSWNSGSIGYADSVK | VGRGNGYFDY | nd | 0/3 | 0/9
GFTFDDYAMH | GISWNSGMIGYADSSK | VGRGGKYFDY | 4.42 | 1/3 | 2/9